In publication PMC10033409, “Autoregulation of GPCR signalling through the third intracellular loop” (Nature, 2023):
Structures can show the parent of a compound that is named as a salt.

Molecular target: T1, PTH1R (Homo sapiens, UniProt Q03431)
T1 construct: expressed in transfected cells; host or cells: HEK 293T
T1 sequence (Q03431 27-593): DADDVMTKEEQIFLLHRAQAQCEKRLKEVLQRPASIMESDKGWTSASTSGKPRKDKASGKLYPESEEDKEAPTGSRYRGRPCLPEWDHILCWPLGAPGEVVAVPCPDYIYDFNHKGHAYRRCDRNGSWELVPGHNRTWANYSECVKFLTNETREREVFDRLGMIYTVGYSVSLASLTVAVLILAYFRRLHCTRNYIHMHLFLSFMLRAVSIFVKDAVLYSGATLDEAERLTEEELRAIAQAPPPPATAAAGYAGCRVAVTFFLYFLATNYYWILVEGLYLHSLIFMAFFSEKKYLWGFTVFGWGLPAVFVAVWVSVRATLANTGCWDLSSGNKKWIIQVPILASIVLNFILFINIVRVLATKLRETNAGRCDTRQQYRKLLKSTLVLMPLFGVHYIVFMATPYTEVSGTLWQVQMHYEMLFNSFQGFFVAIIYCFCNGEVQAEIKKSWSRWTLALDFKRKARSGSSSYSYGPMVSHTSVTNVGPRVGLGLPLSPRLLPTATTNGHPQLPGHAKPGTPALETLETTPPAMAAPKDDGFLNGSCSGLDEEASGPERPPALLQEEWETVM
Test: InsP1 accumulation, PTH1R
Assay type: cell-based
Details: PTH1R Wild-Type; [Isoproterenol] log(M) -9.30103

CC(C)NCC(O)c1ccc(O)c(O)c1 (stereo not drawn) [Isoproterenol, isoproterenol (+)-bitartrate salt]
IP1 (AU), Average: 0.0339 AU
